Results published in patent US20090093448A1, “19-NOR-PROGESTERONE FOR CONTRACEPTION” (GRUNENTHAL GMBH, priority 2007, published 2009).

Target: T1, human progesterone receptor (Homo sapiens, UniProt P06401)
T1 sequence (P06401 1-933): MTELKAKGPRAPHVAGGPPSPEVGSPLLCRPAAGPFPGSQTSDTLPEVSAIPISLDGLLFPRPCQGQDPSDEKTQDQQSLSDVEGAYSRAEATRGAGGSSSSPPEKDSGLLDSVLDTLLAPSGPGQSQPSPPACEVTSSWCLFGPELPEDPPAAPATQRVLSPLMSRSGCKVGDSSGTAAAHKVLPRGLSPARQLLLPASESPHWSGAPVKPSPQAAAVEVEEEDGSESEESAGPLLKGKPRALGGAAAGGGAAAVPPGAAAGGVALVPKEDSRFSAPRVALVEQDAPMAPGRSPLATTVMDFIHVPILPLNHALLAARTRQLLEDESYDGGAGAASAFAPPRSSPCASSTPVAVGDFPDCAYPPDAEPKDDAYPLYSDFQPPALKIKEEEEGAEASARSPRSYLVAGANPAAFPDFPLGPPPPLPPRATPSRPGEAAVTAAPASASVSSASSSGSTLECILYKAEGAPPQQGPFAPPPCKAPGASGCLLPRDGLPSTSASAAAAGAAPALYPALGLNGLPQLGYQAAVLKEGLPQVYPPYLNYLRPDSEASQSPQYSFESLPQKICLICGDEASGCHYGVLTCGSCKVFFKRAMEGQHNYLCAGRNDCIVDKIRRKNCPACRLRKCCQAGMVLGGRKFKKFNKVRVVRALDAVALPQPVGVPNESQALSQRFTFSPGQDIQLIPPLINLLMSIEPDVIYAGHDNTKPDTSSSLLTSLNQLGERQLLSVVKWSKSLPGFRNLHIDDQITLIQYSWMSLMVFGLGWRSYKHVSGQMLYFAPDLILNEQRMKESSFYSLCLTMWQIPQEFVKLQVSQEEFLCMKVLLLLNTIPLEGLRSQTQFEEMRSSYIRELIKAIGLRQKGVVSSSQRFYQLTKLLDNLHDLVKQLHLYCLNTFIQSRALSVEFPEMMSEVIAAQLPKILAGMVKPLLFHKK
Experiment: Relative binding affinity for the human progesterone receptor
Settings: progesterone as reference = 100
Procedure: The above-stated binding affinity for the human progesterone receptor is here preferably determined according to EP-A 808 845 or as in I. Lacroix et al., Bioorganic & Medicinal Chemistry, 1999, 7, 2329-2341.
The relative affinity of trimegestone sulfate for the human progesterone receptor was determined experimentally and compared with the 6β—OH and the 1β—OH metabolites of trimegestone (cf. EP-A 808 845).

CC(=O)[C@H]1CC[C@H]2[C@@H]3CCC4=CC(=O)CC[C@]4(C)[C@H]3CC[C@]12C [Progesterone]
Relative binding affinity to progesterone receptor: ≡100
